We go through 1 substance from patent publication US10385405B2, “Gene expression markers of tumor resistance to HER2 inhibitor treatment” (GENENTECH, INC., priority 2007, dated 2019).

In one experiment the test system is BT474M1 cells. In words: 3D culture of BT474M1 cells with dox-inducible PPM1H shRNA, colony size. The experiment is classed as cell-based, human. The settings on record: 3D culture for 10 days. The procedure: FIG. 23. […] Data are represented as box and whisker plots (whiskers are 5th and 95th percentile).
To determine the impact of PPM1H knockdown in 3D culture, we created stable BT474M1 cell lines carrying doxycycline (dox)-inducible PPM1H shRNA. […] The same cell line was grown in 3D culture for 10 days in the presence or absence of dox, after which colony size was visualized and quantitated. […] PPM1H knockdown was verified at the protein level in the 3D culture model (FIG. 25).

The subject of a further experiment is HER2-expressing tumors. The following applies: patients who test positive for HER2 by IHC or FISH; cited from earlier work.

In the case of “trastuzumab: recombinant humanized version of the murine HER2 antibody 4D5”, the “colony size compared to untreated colonies” value in the experiment on BT474M1 cells (absence of dox) is reported as “significantly smaller”. The “trastuzumab effect on colony size” value with BT474M1 cells (presence of dox (PPM1H knockdown)) is “significantly diminished”. Besides, the “patients exhibiting an objective response” value in the experiment on HER2-expressing tumors was “approximately 30%”.
